{
  "source": "patent US20080262745A1",
  "about": "“Method for Determining Insulin Sensitivity and Glucose Absorption” (priority 2007, published 2008)",
  "settings": "14 rosiglitazone-treated subjects (6 healthy, 8 with diabetes), 4 mg bid for 6 weeks; OGTT, SIARaA; mean ±s.e.m.; 6.9±1.3 before treatment, p<0.05",
  "data": [
    {"smiles": "CN(CCOc1ccc(CC2SC(=O)NC2=O)cc1)c1ccccn1", "note": "(stereo not shown) [rosiglitazone]", "values": [
      {"measurement": "SI (insulin sensitivity) after treatment", "result": "14.2±2.4 10^−4/min/(μU/ml)"}
    ]}
  ]
}
